# Measured affinities in a library of Ab-14 heavy chain variants

Antigen: PDVDLGDISGINAS, a 14-residue peptide of the SARS-CoV-2 spike HR2 region.

Ab-14 is the parent antibody, in scFv form: VH, then three GGGGS repeats, then VL. The light chain is unchanged in all variants.
VH: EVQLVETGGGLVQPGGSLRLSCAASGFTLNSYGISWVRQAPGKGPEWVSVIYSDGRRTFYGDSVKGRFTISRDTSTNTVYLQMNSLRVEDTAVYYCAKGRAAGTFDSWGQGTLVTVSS
VL: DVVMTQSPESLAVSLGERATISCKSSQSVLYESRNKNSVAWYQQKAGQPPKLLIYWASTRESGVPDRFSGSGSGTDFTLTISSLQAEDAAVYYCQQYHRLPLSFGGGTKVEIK

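The library (AAYL49) carries one to three amino acid substitutions per variant, with no insertions or deletions. The scFvs were displayed on barcoded MATa yeast, the peptide on MATalpha yeast. Pairs that bind mate more often; barcode pairs of the diploids are counted by sequencing. Scores were corrected for input abundance and mapped to Kd with protein pairs of known affinity run in the same pool. There are three technical replicates.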

Variants are written as CDR1, CDR2 and CDR3 of the heavy chain (limits as in the source). Parent: GFTLNSYGIS, VIYSDGRRTFYGDSVK, GRAAGTFDS.
All variants listed here change Y52 of the VH, counted from its first residue.
Values are apparent Kd, the geometric mean of the replicates that gave a signal; lower means stronger binding.
"nd" marks a missing value. The strain was present, yet no cells mated with the target were sequenced in any replicate, which points to weak or no binding.
Order: sorted from the lowest average up, undetected variants last.
Three control strains display no target. For library AAYL49, 15% of the pairings with them gave a signal, with a median of 11 µM and one signal in twenty below 680 nM, so weak values seen in few replicates may be background.
Parent in this assay: reference entry 4.4 nM, copy in this library 13 µM (one replicate of three).

* GFTLQSYIIS, VIPSDGRRTFYGDSVK, GRAAGTFDS = 290 nM (1 of 3 replicates)
* GFTLNSYGIS, VITSDGRRTFYGDSVK, GRAASTFDS = 1.9 µM (2 of 3 replicates)
* GFTLNSYGIS, VIFSDGRRTFYGDSVK, GRANGFFDS = 3.0 µM (1 of 3 replicates)
* GFTLNSYGIS, VIDSDGRRTIYGDSVK, GRAAGEFDS = 3.7 µM (1 of 3 replicates)
* GFTLNSYGIS, VIISDGRRTFYGDSVK, GRAKGTFDS = 4.0 µM (1 of 3 replicates)
* GFTINSYGIS, VIVSDGRRTFYGASVK, GRAAGTFDS = 4.3 µM (1 of 3 replicates)
* GFTWNSYGIS, VIASDGRRTFYGDSVK, GRASGTFDS = 6.9 µM (1 of 3 replicates)
* GFTLNSYEIS, VIHSDGRRTFYGDSVK, GSAAGTFDS = 7.8 µM (3 of 3 replicates)
* GFTLNSYGIS, VIESDGARTFYGDSVK, GRAAGTFDF = 12 µM (1 of 3 replicates)
* GFTLNSYWIS, VIASDGRRTFYGDSVK, GRAYGTFDS = 15 µM (1 of 3 replicates)
* GFTLNSYGIS, VIHSDGRRTFYWDSVK, GRAAGTFLS = 24 µM (2 of 3 replicates)
* GFTLNSYGIS, VISSDGRRTFYGDSVK, GRAHGTFWS = 35 µM (2 of 3 replicates)
* GFTLNSYTIS, VICSDSRRTFYGDSVK, GRAAGTFDS = 38 µM (3 of 3 replicates)
* GFTLNSYGIS, VICSDGRRTFGGDSVK, GRAAGTFDS = 40 µM (2 of 3 replicates)
* GFTLNSYGIS, VAKSDGRRTFYGDSVA, GRAAGTFDS = 280 µM (2 of 3 replicates)
* GFTLNEYGIS, SISSDGRRTFYGDSVK, GRAAGTFDS = 430 µM (3 of 3 replicates)
* GFTLNSYHIS, VHESDGRRTFYGDSVK, GRAAGTFDS = nd (0 of 3 replicates)
* GFTLLSYGIS, VIDSDGRKTFYGDSVK, GRAAGTFDS = nd (0 of 3 replicates)
* GFTLNSYGIS, VITSDGRRTFYGDSVK, GRFAGTFDS = nd (0 of 3 replicates)
* GSTLNSYGIS, VITSDGRRTFYGDSVK, GRHAGTFDS = nd (0 of 3 replicates)
* GFTENSYGIS, VIQSDGRRTHYGDSVK, GRAAGTFDS = nd (0 of 3 replicates)
* GFTDNSYGIS, VIGSDGRRTFYGDSVK, GRAPGTFDS = nd (0 of 3 replicates)
* GFTLNSYGIS, VILSDGRRTFYGDSVK, GRAAGTFDS = nd (0 of 3 replicates)
* GFTPNSYGIS, VISSDGRRMFYGDSVK, GRAAGTFDS = nd (0 of 3 replicates)
* GFTLNSYGIS, VITSDGRYTFYGDSVC, GRAAGTFDS = nd (0 of 3 replicates)
* GFTLNSYGIS, VIWSDMRRTFYGDSVK, GRAAGTFCS = nd (0 of 3 replicates)
* GFTLNSYGIS, VIPWDGGRTFYGDSVK, GRAAGTFDS = nd (0 of 3 replicates)
* GFTLNSYGIV, VINSDGRRTFYGDSVK, NRAAGTFDS = nd (0 of 3 replicates)
* GFTLNVYGIS, VILSDGRRTFYGDSVK, GRAAGTFGS = nd (0 of 3 replicates)
* GFTLNSYGIS, VILSDGRLTFYGDSHK, GRAAGTFDS = nd (0 of 3 replicates)
* GFTLNSYGIS, VIVRDGRRTFPGDSVK, GRAAGTFDS = nd (0 of 3 replicates)
* GFTLNSYGIS, VIDSDGRRTFYGDSVE, GDAAGTFDS = nd (0 of 3 replicates)
* GFTLNSYGIS, VIRSDGRRTFYGDSVK, GRAAGTFDF = nd (0 of 3 replicates)
* GFTQNSYGIS, VIGSDGRRTFYGDSVK, GRAAGTFDS = nd (0 of 3 replicates)

Excerpt, the first 4 entries:

CDR-H1,CDR-H2,CDR-H3,apparent Kd,detected
GFTLQSYIIS,VIPSDGRRTFYGDSVK,GRAAGTFDS,290 nM,1/3
GFTLNSYGIS,VITSDGRRTFYGDSVK,GRAASTFDS,1.9 µM,2/3
GFTLNSYGIS,VIFSDGRRTFYGDSVK,GRANGFFDS,3.0 µM,1/3
GFTLNSYGIS,VIDSDGRRTIYGDSVK,GRAAGEFDS,3.7 µM,1/3

Reference: Engelhart et al. 2022, doi:10.1038/s41597-022-01779-4. File: FLAb, binding data.